This assay concerns the target ADRA2A (Homo sapiens, UniProt P08913). To be noted: read-out: ADRA2A IC50.

Sequences of proteins named here, by UniProt entry; tags and fusion partners are left off.
UniProt P08913, whole entry: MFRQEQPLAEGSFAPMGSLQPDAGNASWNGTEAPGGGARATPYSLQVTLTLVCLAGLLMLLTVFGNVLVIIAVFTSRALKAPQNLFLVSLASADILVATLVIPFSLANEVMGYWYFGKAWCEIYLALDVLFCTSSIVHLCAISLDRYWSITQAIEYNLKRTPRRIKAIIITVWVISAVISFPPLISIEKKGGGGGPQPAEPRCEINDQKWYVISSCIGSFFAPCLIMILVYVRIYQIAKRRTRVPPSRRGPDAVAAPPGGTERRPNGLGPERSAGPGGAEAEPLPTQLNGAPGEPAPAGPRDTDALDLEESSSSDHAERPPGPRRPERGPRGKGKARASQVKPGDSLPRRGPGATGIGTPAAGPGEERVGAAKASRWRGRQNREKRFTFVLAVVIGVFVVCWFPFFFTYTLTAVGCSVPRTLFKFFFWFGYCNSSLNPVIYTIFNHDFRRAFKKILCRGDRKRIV

With `CCOC(=O)[C@@H]1[C@H]2C[C@H]3c4[nH]c5ccccc5c4CCN3C[C@@H]2CC[C@@H]1O` [Compound 3a, 17-α-Hydroxyyohimban-16-α-carboxylic Acid Ethyl Ester], the IC50 came out at 31 nM.

Take `CC(C)OC(=O)[C@@H]1[C@H]2C[C@H]3c4[nH]c5ccccc5c4CCN3C[C@@H]2CC[C@@H]1O` [Compound 3b, 17-α-Hydroxyyohimban-16-α-carboxylic Acid Isopropyl Ester]: the IC50 is 50 nM.

On to `CC(C)CCOC(=O)[C@@H]1[C@H]2C[C@H]3c4[nH]c5ccccc5c4CCN3C[C@@H]2CC[C@@H]1O` [Compound 3c, 17-α-Hydroxyyohimban-16-α-carboxylic Acid (3-Methylbutyl-1-yl) Ester], for which the IC50 amounted to 144 nM.

With `O=C(OC1CCCC1)[C@@H]1[C@H]2C[C@H]3c4[nH]c5ccccc5c4CCN3C[C@@H]2CC[C@@H]1O` [Compound 3d, 17-α-Hydroxyyohimban-16-α-carboxylic Acid Cyclopentyl Ester], the IC50 came to 108 nM.

For `CC(C)(C)OC(=O)[C@@H]1[C@H]2C[C@H]3c4[nH]c5ccccc5c4CCN3C[C@@H]2CC[C@@H]1O` [Compound 3e, 17-α-Hydroxyyohimban-16-α-carboxylic Acid tert-Butyl Ester], the IC50 came out at 239 nM.

Turning to `CNCCOC(=O)[C@@H]1[C@H]2C[C@H]3c4[nH]c5ccccc5c4CCN3C[C@@H]2CC[C@@H]1O` [Compound 4c, 17-α-Hydroxyyohimban-16-α-carboxylic Acid 2-(Methylamino)ethyl Ester], the IC50 is 37 nM.

`O=C(OC1CCCNC1)[C@@H]1[C@H]2C[C@H]3c4[nH]c5ccccc5c4CCN3C[C@@H]2CC[C@@H]1O` (stereo partly drawn) [Compound 4e, 17-α-Hydroxyyohimban-16-α-carboxylic Acid Piperidine-3-yl Ester]: the IC50 amounted to 57 nM.

In the case of `O=C(OCC1CNC1)[C@@H]1[C@H]2C[C@H]3c4[nH]c5ccccc5c4CCN3C[C@@H]2CC[C@@H]1O` [Compound 4f, 17-α-Hydroxyyohimban-16-α-carboxylic Acid Azetidin-3-ylmethyl Ester], the IC50 came to 59 nM.

Regarding `O=C(OC[C@H]1CCN1)[C@@H]1[C@H]2C[C@H]3c4[nH]c5ccccc5c4CCN3C[C@@H]2CC[C@@H]1O` [Compound 4g, 17-α-Hydroxyyohimban-16-α-carboxylic Acid (R)-Azetidin-2-ylmethyl Ester], the IC50 is 19 nM.

On to `O=C(OC[C@@H]1CCN1)[C@@H]1[C@H]2C[C@H]3c4[nH]c5ccccc5c4CCN3C[C@@H]2CC[C@@H]1O` [Compound 4h, 17-α-Hydroxyyohimban-16-α-carboxylic acid (S)-Azetidin-2-ylmethyl Ester], for which the IC50 amounted to 79 nM.

Take `O=C(O[C@@H]1CCNC1)[C@@H]1[C@H]2C[C@H]3c4[nH]c5ccccc5c4CCN3C[C@@H]2CC[C@@H]1O` [Compound 4k, 17-α-Hydroxyyohimban-16-α-carboxylic Acid (R)-Pyrrolidin-3-yl Ester]: the IC50 worked out at 38 nM.

With `O=C(OC1CNC1)[C@@H]1[C@H]2C[C@H]3c4[nH]c5ccccc5c4CCN3C[C@@H]2CC[C@@H]1O` [Compound 4m, 17-α-Hydroxyyohimban-16-α-carboxylic Acid Azetidin-3-yl Ester], the IC50 came to 21 nM.

Turning to `CN1CC[C@H](OC(=O)[C@@H]2[C@H]3C[C@H]4c5[nH]c6ccccc6c5CCN4C[C@@H]3CC[C@@H]2O)C1` [Compound 4p, 17-α-Hydroxyyohimban-16-α-carboxylic Acid (S)-N-Methylpyrrolidin-3-yl Ester], the IC50 came to 23 nM.

The values above are taken from article PMC11215778 (Journal of Medicinal Chemistry, 2024).
